Like-named read-outs stand apart in the source and are kept apart here.
What was measured:
human P2X2/3 receptor = human P2X2/3 receptor (Homo sapiens (Human), UniProt P56373+Q9UBL9); experiment: Intracellular calcium measurement (FLIPR, Fluo-4) of antagonist activity at human P2X2/3 receptors; format: cell-based
human P2X3 receptor = human P2X3 receptor (Homo sapiens (Human), UniProt P56373)
[1] = human P2X2/3, FLIPR calcium assay, agonist α,β-Me-ATP, read-out: hP2X2/3 IC50
[2] = hP2X3 IC50 (nM), human P2X3, FLIPR calcium assay, agonist α,β-Me-ATP
[3] = read-out: hP2X3 IC50, human P2X3, FLIPR calcium assay, agonist α,β-Me-ATP

Amino acid sequences for entries named in this document (tags omitted). A change or cut given only in a name is not applied to a line headed by its entry.
UniProt P56373: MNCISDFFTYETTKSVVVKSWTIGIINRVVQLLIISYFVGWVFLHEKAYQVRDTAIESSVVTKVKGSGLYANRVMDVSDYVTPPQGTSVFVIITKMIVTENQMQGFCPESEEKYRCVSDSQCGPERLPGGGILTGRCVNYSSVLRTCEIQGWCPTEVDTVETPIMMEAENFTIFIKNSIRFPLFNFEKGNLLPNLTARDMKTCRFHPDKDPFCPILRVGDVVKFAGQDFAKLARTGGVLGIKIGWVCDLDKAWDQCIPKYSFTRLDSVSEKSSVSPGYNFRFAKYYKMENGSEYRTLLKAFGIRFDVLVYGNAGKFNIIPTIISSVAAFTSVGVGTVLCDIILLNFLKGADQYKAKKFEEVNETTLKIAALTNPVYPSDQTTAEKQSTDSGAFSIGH
UniProt Q9UBL9: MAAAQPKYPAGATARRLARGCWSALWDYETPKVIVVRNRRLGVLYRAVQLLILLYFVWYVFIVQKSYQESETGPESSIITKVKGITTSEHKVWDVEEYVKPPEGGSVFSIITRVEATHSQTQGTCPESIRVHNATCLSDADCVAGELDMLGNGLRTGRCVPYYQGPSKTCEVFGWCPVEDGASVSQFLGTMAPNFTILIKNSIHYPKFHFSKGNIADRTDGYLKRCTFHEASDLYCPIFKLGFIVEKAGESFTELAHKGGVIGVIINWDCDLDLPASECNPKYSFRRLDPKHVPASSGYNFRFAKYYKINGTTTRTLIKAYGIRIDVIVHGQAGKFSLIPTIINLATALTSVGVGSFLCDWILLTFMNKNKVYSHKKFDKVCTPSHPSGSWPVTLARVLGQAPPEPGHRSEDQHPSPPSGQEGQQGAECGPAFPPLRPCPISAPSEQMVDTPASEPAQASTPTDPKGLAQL

SMILES: CCc1cnc(-c2cc(OC[C@@H]3CCCO3)cc(C(=O)N[C@H](C)c3ccc(C)nn3)c2)s1 [Example 282, 3-(5-ethyl-1,3-thiazol-2-yl)-N-[(1R)-1-(6-methylpyridazin-3-yl)ethyl]-5-[(2S)-tetrahydrofuran-2-ylmethoxy]benzamide]
- IC50 (human P2X2/3 receptor; [1]): 209 nM
- IC50 (human P2X3 receptor; read-out: hP2X3 IC50): 8 nM

SMILES: Cc1cnc(-c2cc(OCC3(C)CCCO3)cc(C(=O)N[C@H](C)c3cnc(C(F)(F)F)nc3)c2)s1 (single isomer, unassigned) [Example 331]
- IC50 (human P2X3 receptor; [2]): 7 nM

SMILES: Cc1cnc(-c2cc(OC[C@@H]3CCCO3)cc(C(=O)NCc3ncc(Cl)cc3F)c2)s1 [Example 55, N-[(5-Chloro-3-fluoropyridin-2-yl)methyl]-3-(5-methyl-1,3-thiazol-2-yl)-5-[(2S)-tetrahydrofuran-2-ylmethoxy]benzamide]
- IC50 (human P2X2/3 receptor; hP2X2/3 IC50 (nM)): 325 nM

SMILES: Cc1cnc(-c2cc(OCC3(C)CCOC3)cc(C(=O)N[C@H](C)c3cnc(C(F)(F)F)nc3)c2)s1 (single isomer, unassigned) [Example 333]
- IC50 (human P2X3 receptor; [2]): 4 nM

SMILES: Cc1cnc(-c2cc(OC(C)C(C)O)cc(C(=O)N[C@H](C)c3cnc(C(F)(F)F)nc3)c2)s1 (single isomer, unassigned) [Example 339]
- IC50 (human P2X2/3 receptor; [1]): 251 nM
- IC50 (human P2X3 receptor; read-out: hP2X3 IC50): 5 nM

SMILES: Cc1cnc(-c2cc(OC3C4COCC3CN(C)C4)cc(C(=O)N[C@H](C)c3cnc(C(F)(F)F)nc3)c2)s1 (single isomer, unassigned) [Example 342]
- IC50 (human P2X2/3 receptor; [1]): 1890 nM
- IC50 (human P2X3 receptor; [3]): 40 nM

SMILES: Cc1cnc(-c2cc(OCC3(C)CCOC3)cc(C(=O)N[C@H](C)c3cnc(C(F)(F)F)nc3)c2)s1 (stereo partly drawn) [Example 332, 3-[(3-methyltetrahydrofuran-3-yl)methoxy]-5-(5-methyl-1,3-thiazol-2-yl)-N-{(1R)-1-[2-(trifluoromethyl)pyrimidin-5-yl]ethyl}benzamide]
- IC50 (human P2X2/3 receptor; [1]): 174 nM
- IC50 (human P2X3 receptor; [2]): 4 nM

SMILES: Cc1cnc(-c2cc(O[C@@H]3CCCN(C)C3)cc(C(=O)N[C@H](C)c3cnc(C(F)(F)F)nc3)c2)s1 [Example 158, 3-{[(3R)-1-methylpiperidin-3-yl]oxy}-5-(5-methyl-1,3-thiazol-2-yl)-N-{(1R)-1-[2-(trifluoromethyl)pyrimidin-5-yl]ethyl}benzamide]
- IC50 (human P2X2/3 receptor; [1]): 1940 nM
- IC50 (human P2X3 receptor; [3]): 21 nM

SMILES: Cc1cnc(-c2cc(OC(C)C(C)O)cc(C(=O)N[C@H](C)c3ccc(C(F)(F)F)nn3)c2)s1 (single isomer, unassigned) [Example 230]
- IC50 (human P2X3 receptor; [2]): 2 nM

SMILES: Cc1cnc(-c2cc(OC3CCOCC3)cc(C(=O)NC(C)c3nnc(C(F)(F)F)s3)c2)s1 (single isomer, unassigned) [Example 196, 3-(5-methyl-1,3-thiazol-2-yl)-5-(tetrahydro-2H-pyran-4-yloxy)-N-{1-[5-(trifluoromethyl)-1,3,4-thiadiazol-2-yl]ethyl}benzamide]
- IC50 (human P2X3 receptor; [2]): 19 nM

SMILES: CCc1cnc(-c2cc(OC[C@H]3CCOC3)cc(C(=O)N[C@H](C)c3ccc(C(F)(F)F)nn3)c2)s1 [Example 296, 3-(5-ethyl-1,3-thiazol-2-yl)-5-[(3S)-tetrahydrofuran-3-ylmethoxy]-N-{(1R)-1-[6-(trifluoromethyl)pyridazin-3-yl]ethyl}benzamide]
- IC50 (human P2X2/3 receptor; [1]): 133 nM

SMILES: Cc1cnc(-c2cc(OC(C)C(C)O)cc(C(=O)N[C@H](C)c3cnc(C(F)(F)F)nc3)c2)s1 (single isomer, unassigned) [Example 162]
- IC50 (human P2X3 receptor; hP2X3 IC50 (nM)): 5 nM

SMILES: Cc1cnc(-c2cc(OC3CCOCC3)cc(C(=O)NC(C)c3nnc(C(F)(F)F)s3)c2)s1 (single isomer, unassigned) [Example 195, 3-(5-methyl-1,3-thiazol-2-yl)-5-(tetrahydro-2H-pyran-4-yloxy)-N-{1-[5-(trifluoromethyl)-1,3,4-thiadiazol-2-yl]ethyl}benzamide]
- IC50 (human P2X3 receptor; [2]): 380 nM

SMILES: CCc1cnc(-c2cc(OC[C@H]3CCCO3)cc(C(=O)N[C@H](C)c3ccc(C)nn3)c2)s1 [Example 267, 3-(5-ethyl-1,3-thiazol-2-yl)-N-[(1R)-1-(6-methylpyridazin-3-yl)ethyl]-5-[(2R)-tetrahydrofuran-2-ylmethoxy]benzamide]
- IC50 (human P2X2/3 receptor; [1]): 173 nM
- IC50 (human P2X3 receptor; read-out: hP2X3 IC50): 14 nM

SMILES: CCc1cnc(-c2cc(OC[C@@H]3CCOC3)cc(C(=O)N[C@H](C)c3ccc(C)nn3)c2)s1 [Example 258, 3-(5-ethyl-1,3-thiazol-2-yl)-N-[(1R)-1-(6-methylpyridazin-3-yl)ethyl]-5-[(3R)-tetrahydrofuran-3-ylmethoxy]benzamide]
- IC50 (human P2X2/3 receptor; [1]): 38 nM
- IC50 (human P2X3 receptor; [3]): 4 nM

SMILES: CCc1cnc(-c2cc(OC[C@@H]3CCOC3)cc(C(=O)N[C@H](C)c3ccc(C(F)(F)F)nn3)c2)s1 [Example 292, 3-(5-ethyl-1,3-thiazol-2-yl)-5-[(3R)-tetrahydrofuran-3-ylmethoxy]-N-{(1R)-1-[6-(trifluoromethyl)pyridazin-3-yl]ethyl}benzamide]
- IC50 (human P2X2/3 receptor; [1]): 52 nM

SMILES: Cc1cnc(-c2cc(OC(C)C(C)O)cc(C(=O)N[C@H](C)c3cnc(C(F)(F)F)nc3)c2)s1 (stereo in doubt) [Example 340, 3-[(3-hydroxybutan-2-yl)oxy]-5-(5-methyl-1,3-thiazol-2-yl)-N-{(1R)-1-[2-(trifluoromethyl)pyrimidin-5-yl]ethyl}benzamide]
- IC50 (human P2X2/3 receptor; [1]): 103 nM
- IC50 (human P2X3 receptor; hP2X3 IC50 (nM)): 3 nM

SMILES: Cc1cnc(-c2cc(OCC34CNC(CO3)C4)cc(C(=O)N[C@H](C)c3cnc(C(F)(F)F)nc3)c2)s1 (stereo partly drawn) [Example 407, 3-(5-Methyl-1,3-thiazol-2-yl)-5-[2-oxa-5-azabicyclo[2.2.1]hept-1-ylmethoxy]-N-{(1R)-1-[2-(trifluoromethyl)pyrimidin-5-yl]ethyl}benzamide]
- IC50 (human P2X2/3 receptor; [1]): 1680 nM

SMILES: Cc1cnc(-c2cc(OCC3CN(C)CCC3(F)F)cc(C(=O)N[C@H](C)c3cnc(C(F)(F)F)nc3)c2)s1 (stereo partly drawn) [Example 383, 3-{[4,4-difluoro-1-methylpiperidin-3-yl]methoxy}-5-(5-methyl-1,3-thiazol-2-yl)-N-{(1R)-1-[2-(trifluoromethyl)pyrimidin-5-yl]ethyl}benzamide]
- IC50 (human P2X2/3 receptor; [1]): 35 nM
- IC50 (human P2X3 receptor; [3]): 2 nM

SMILES: Cc1cnc(-c2cc(OC(C)C(C)O)cc(C(=O)N[C@H](C)c3cnc(C(F)(F)F)nc3)c2)s1 (single isomer, unassigned) [Example 163]
- IC50 (human P2X2/3 receptor; [1]): 83 nM
- IC50 (human P2X3 receptor; read-out: hP2X3 IC50): 5 nM

SMILES: Cc1cnc(-c2cc(OC(C)C(C)O)cc(C(=O)N[C@H](C)c3ccc(C(F)(F)F)nn3)c2)s1 (single isomer, unassigned) [Example 183]
- IC50 (human P2X3 receptor; [2]): 7 nM

SMILES: Cc1cnc(-c2cc(O[C@@H]3CCOC3)cc(C(=O)NC(C)c3nnc(C(F)(F)F)s3)c2)s1 (single isomer, unassigned) [Example 198]
- IC50 (human P2X2/3 receptor; [1]): 245 nM
- IC50 (human P2X3 receptor; [2]): 30 nM

SMILES: Cc1cnc(-c2cc(O[C@H]3CCOC3)cc(C(=O)NC(C)c3nnc(C(F)(F)F)s3)c2)s1 (single isomer, unassigned) [Example 199]
- IC50 (human P2X2/3 receptor; [1]): ≥ 10000 nM
- IC50 (human P2X3 receptor; [2]): 1540 nM

SMILES: Cc1cnc(-c2cc(O[C@@H]3CCOC3)cc(C(=O)NC(C)c3nnc(C(F)(F)F)s3)c2)s1 (single isomer, unassigned) [Example 197]
- IC50 (human P2X2/3 receptor; [1]): ≥ 10000 nM
- IC50 (human P2X3 receptor; [2]): 1150 nM

SMILES: Cc1cnc(-c2cc(OC3CCCNC3)cc(C(=O)N[C@H](C)c3cnc(C(F)(F)F)nc3)c2)s1 (single isomer, unassigned) [Example 206]
- IC50 (human P2X3 receptor; [2]): 31 nM

SMILES: Cc1cnc(-c2cc(OCC3CC3)cc(C(=O)N[C@H](C)c3cnc(C(F)(F)F)nc3)c2)s1 [Example 1, 3-(Cyclopropylmethoxy)-5-(5-methyl-1,3-thiazol-2-yl)-N-{(1R)-1-[2-(trifluoromethyl)pyrimidin-5-yl]ethyl}benzamide]
- IC50 (human P2X3 receptor; [3]): 4 nM

SMILES: Cc1cnc(-c2cc(OC3C4COCC3CN(C)C4)cc(C(=O)N[C@H](C)c3cnc(C(F)(F)F)nc3)c2)s1 (stereo partly drawn) [Example 341, 3-[(7-methyl-3-oxa-7-azabicyclo[3.3.1]non-9-yl)oxy]-5-(5-methyl-1,3-thiazol-2-yl)-N-{(1R)-1-[2-(trifluoromethyl)pyrimidin-5-yl]ethyl}benzamide]
- IC50 (human P2X2/3 receptor; [1]): 1240 nM

SMILES: Cc1cnc(-c2cc(OC[C@@H]3CN(C(=O)OC(C)(C)C)CCO3)cc(C(=O)N[C@H](C)c3cnc(C(F)(F)F)nc3)c2)s1 [Example 349, Tert-butyl (2S)-2-{[3-(5-methyl-1,3-thiazol-2-yl)-5-({(1R)-1-[2-(trifluoromethyl)pyrimidin-5-yl]ethyl}carbamoyl)phenoxy]methyl}morpholine-4-carboxylate]
- IC50 (human P2X2/3 receptor; [1]): 545 nM

SMILES: Cc1cnc(-c2cc(OC3CCCNC3)cc(C(=O)N[C@H](C)c3cnc(C(F)(F)F)nc3)c2)s1 (single isomer, unassigned) [Example 205]
- IC50 (human P2X3 receptor; [2]): 4 nM

SMILES: Cc1cnc(-c2cc(OC(C)C(C)O)cc(C(=O)N[C@H](C)c3ccc(C(F)(F)F)nn3)c2)s1 (single isomer, unassigned) [Example 231]
- IC50 (human P2X3 receptor; hP2X3 IC50 (nM)): 6 nM

SMILES: CCc1cnc(-c2cc(OC[C@H]3CCOC3)cc(C(=O)N[C@H](C)c3ccc(C)nn3)c2)s1 [Example 276, 3-(5-ethyl-1,3-thiazol-2-yl)-N-[(1R)-1-(6-methylpyridazin-3-yl)ethyl]-5-[(3S)-tetrahydrofuran-3-ylmethoxy]benzamide]
- IC50 (human P2X3 receptor; read-out: hP2X3 IC50): 10 nM

SMILES: Cc1cnc(-c2cc(OC3CCC(=O)N(C)C3)cc(C(=O)N[C@H](C)c3cnc(C(F)(F)F)nc3)c2)s1 (single isomer, unassigned) [Example 337]
- IC50 (human P2X3 receptor; [2]): 13 nM

SMILES: Cc1cnc(-c2cc(OCC3(C)CCCO3)cc(C(=O)N[C@H](C)c3cnc(C(F)(F)F)nc3)c2)s1 (stereo partly drawn) [Example 329, 3-[(2-methyltetrahydrofuran-2-yl)methoxy]-5-(5-methyl-1,3-thiazol-2-yl)-N-{(1R)-1-[2-(trifluoromethyl)pyrimidin-5-yl]ethyl}benzamide]
- IC50 (human P2X2/3 receptor; [1]): 120 nM

SMILES: Cc1cnc(-c2cc(OC[C@H]3CN(C(=O)OC(C)(C)C)CCO3)cc(C(=O)N[C@@H](C)c3cnc(C(F)(F)F)nc3)c2)s1 [Example 412, tert-butyl (2R)-2-{[3-(5-methyl-1,3-thiazol-2-yl)-5-({(1S)-1-[2-(trifluoromethyl)pyrimidin-5-yl]ethyl}carbamoyl)phenoxy]methyl}morpholine-4-carboxylate]
- IC50 (human P2X2/3 receptor; [1]): ≥ 10000 nM
